According to patent US20050232860A1, “Use of edg-receptor agonists for the treatment of hypertension” (priority 2001, published 2005):

Tested on: cannabinoid CB1 binding sites
Details: 10 nM radioligand; for binding of [^3H]SR141716A: n=4

In the case of `Cc1c(C(=O)NN2CCCCC2)nn(-c2ccc(Cl)cc2Cl)c1-c1ccc(Cl)cc1` [[^3H]SR141716A], the “binding of [^3H]SR141716A as % of the radioactivity added to each assay” value (absence of 3 μM CP55,940) is reported as 4.64±0.13%, the “binding of [^3H]SR141716A” value (absence of 3 μM CP55,940) is reported as 84.1±4.8 fmol/mg protein and the “binding of [^3H]SR141716A as % of the radioactivity added to each assay” value (presence of 3 μM CP55,940) is reported as 4.71±0.12%. For the same compound, the “binding of [^3H]SR141716A” value (presence of 3 μM CP55,940) was 85.2±4.1 fmol/mg protein.

Like-named read-outs stand apart in the source and are kept apart here.
